# Test results reported in ChEMBL document CHEMBL1145152, “Design, synthesis, and antifolate activity of new analogues of piritrexim and other diaminopyrimidine dihydrofolate reductase inhibitors with omega-carboxyalkoxy or omega-carboxy-1-alkynyl substitution in the side chain” (J Med Chem, 2005).
# Tested on: Dihydrofolate reductase (Pneumocystis carinii)
# Conditions: Mycobacterium avium
smiles,measurement,value
COc1ccc(OCCCC(=O)O)cc1Cc1cnc2nc(N)nc(N)c2c1C,Selectivity index,5.1
